Assay results published in US20160106814A1, “Novel Oral Pharmaceutical Composition for Treatment of Diabetes” (NOVO NORDISK A/S, priority 2013, published 2016).

Assay: Transport of GLP-1 peptide across mucus-producing E12 cell monolayers in the presence of sodium caprate and BBI
Format: in vitro ADME
Settings: pH 7.4, apical to basolateral
Procedure: Buffer was then removed and the experiment initiated. […] Receiver samples (200 μl) were taken every 15 min.
In all samples with GLP-1 peptide and mannitol, the concentration of GLP-1 peptide was determined using a LOCI assay (or LC-MS assay) and scintillation counter, respectively.

[1] = 100 μM GLP-1 peptide + 13 mM sodium caprate + 0.2% BBI
[2] = 100 μM GLP-1 peptide + 13 mM sodium caprate, without BBI

Papp A→B [1] [×10⁻⁶ cm/s] | Papp A→B [2] [×10⁻⁶ cm/s] | SMILES
0.125 | 0.0907 | CC[C@H](C)[C@H](NC(=O)[C@H](Cc1ccccc1)NC(=O)[C@H](CCC(=O)O)NC(=O)[C@H](CCCCNC(=O)[C@@H](N)CCCCNC(=O)[C@@H](N)CCCCNC(=O)CC[C@H](NC(=O)CCCCCCCCCCCCCCC(=O)O)C(=O)O)NC(=O)[C@H](C)NC(=O)[C@H](C)NC(=O)[C@H](CCC(N)=O)NC(=O)CNC(=O)[C@H](CCC(=O)O)NC(=O)[C@H](CC(C)C)NC(=O)[C@H](Cc1ccc(O)cc1)NC(=O)[C@H](CO)NC(=O)[C@H](CO)NC(=O)[C@@H](NC(=O)[C@H](CC(=O)O)NC(=O)[C@H](CO)NC(=O)[C@@H](NC(=O)[C@H](Cc1ccccc1)NC(=O)[C@@H](NC(=O)CNC(=O)[C@H](CCC(=O)O)NC(=O)C(C)(C)NC(=O)[C@@H](N)Cc1c[nH]cn1)[C@@H](C)O)[C@@H](C)O)C(C)C)C(=O)N[C@@H](C)C(=O)N[C@@H](Cc1c[nH]c2ccccc12)C(=O)N[C@@H](CC(C)C)C(=O)N[C@H](C(=O)N[C@@H](CCCNC(=N)N)C(=O)NCC(=O)N[C@@H](CCCNC(=N)N)C(=O)N[C@@H](CCCCNC(=O)[C@@H](N)CCCCNC(=O)[C@@H](N)CCCCNC(=O)CC[C@H](NC(=O)CCCCCCCCCCCCCCC(=O)O)C(=O)O)C(=O)O)C(C)C [GLP-1 peptide 3, N{Epsilon-26}-[(2S)-2-amino-6-[[(2S)-2-amino-6-[[(4S)-4-carboxy-4-(15-carboxypentadecanoylamino)butanoyl]amino]hexanoyl]amino]hexanoyl], N{Epsilon-37}-[(2S)-2-amino-6-[[(2S)-2-amino-6-[[(4S)-4-carboxy-4-(15-carboxypentadecanoylamino)butanoyl]-amino]hexanoyl]amino]hexanoyl]-[Aib8,Arg34,Lys37]-GLP-1-(7-37)-peptide]
0.51 | 0.276 | CC[C@H](C)[C@H](NC(=O)[C@H](Cc1ccccc1)NC(=O)[C@H](CCC(=O)O)NC(=O)[C@H](CCCCNC(=O)COCCOCCNC(=O)CC[C@H](NC(=O)COCCOCCNC(=O)CCCCCCCCCCCCC(=O)O)C(=O)O)NC(=O)[C@H](C)NC(=O)[C@H](C)NC(=O)[C@H](CCC(N)=O)NC(=O)CNC(=O)[C@H](CCC(=O)O)NC(=O)[C@H](CC(C)C)NC(=O)[C@H](Cc1ccc(O)cc1)NC(=O)[C@H](CO)NC(=O)[C@H](CO)NC(=O)[C@@H](NC(=O)[C@H](CC(=O)O)NC(=O)[C@H](CO)NC(=O)[C@@H](NC(=O)[C@H](Cc1ccccc1)NC(=O)[C@@H](NC(=O)CNC(=O)[C@H](CCC(=O)O)NC(=O)C(C)(C)NC(=O)[C@@H](N)Cc1c[nH]cn1)[C@@H](C)O)[C@@H](C)O)C(C)C)C(=O)N[C@@H](C)C(=O)N[C@@H](Cc1c[nH]c2ccccc12)C(=O)N[C@@H](CC(C)C)C(=O)N[C@H](C(=O)N[C@@H](CCCNC(=N)N)C(=O)NCC(=O)N[C@@H](CCCNC(=N)N)C(=O)N[C@@H](CCCCNC(=O)COCCOCCNC(=O)CC[C@H](NC(=O)COCCOCCNC(=O)CCCCCCCCCCCCC(=O)O)C(=O)O)C(=O)O)C(C)C [GLP-1 peptide 10, N{Epsilon-26}-[2-[2-[2-[[(4S)-4-carboxy-4-[[2-[2-[2-(13-carboxytridecanoylamino)ethoxy]ethoxy]acetyl]amino]butanoyl]amino]ethoxy]ethoxy]acetyl], N {Epsilon-37}-[2-[2-[2-[[(4S)-4-carboxy-4-[[2-[2-[2-(13-carboxytridecanoylamino)ethoxy]-ethoxy]acetyl]amino]butanoyl]amino]ethoxy]ethoxy]acetyl]-[Aib8,Arg34, Lys37]-GLP-1-(7-37)-peptide]
